From patent publication US8580749B2, “Peptide-coated cell localization to diseased or damaged tissues and methods related thereto” (Cell Targeting, Inc., priority 2009, dated 2013)

Tested on: human mesenchymal stem cells (MSCs)
Details: higher concentrations
Method: MSCs were grown in Dulbecco's Modified Eagle's Medium (DMEM) and fetal bovine serum (FBS) (10%) supplemented with fibroblast growth factor-2 (FGF-2) (5 ng/ml) for 1 week. They were then trypsinized, washed with DMEM, aliquoted at 1 million cells/vial and resuspended in Tyrodes' balanced salt solution. […] was later used throughout the coating procedure. […] Cell solutions were centrifuged (200 RCF, 5 min, r.t.), washed twice with cold Tyrodes solution, then incubated for 20 minutes with 20 μg/ml streptavidin-PE (S866 Invitrogen), washed with Tyrodes solution, fixed with formalin, and then assessed using flow cytometry and epifluorescent microscopy.

## PA-SK(Biotin)NSCARSKNKDC [PA-BioCAR]
  appearance of cells after coating: looked perturbed at higher concentrations
